Results from patent US20240132593A1 (KINETA, published 2024).

What was measured:
RFQ-VISTA-ECD-Fc = target: T1, RFQ-VISTA-ECD-Fc (human); test: ELISA, 10 ug/mL antibody on plate-bound mutant VISTA-Fc
T1 construct: also called hVISTA ECD-Fc R54A, F62A, Q63A; human VISTA-Fc 54A62A63A

2.1C-VISTA-ECD-Fc = 2.1C-VISTA-ECD-Fc (human); test: ELISA on plate-bound VISTA-ECD-Fc
3.1-VISTA-ECD-Fc = 3.1-VISTA-ECD-Fc (human); test: ELISA on plate-bound VISTA-ECD-Fc
2.3-VISTA-ECD-Fc = target: T2, 2.3-VISTA-ECD-Fc (human); test: ELISA on plate-bound VISTA-ECD-Fc
T2 construct: also called VISTA-ECD mutant 2.3

3xHis-Ala-VISTA-ECD-Fc = 3xHis-Ala-VISTA-ECD-Fc (human); test: ELISA on plate-bound VISTA-ECD-Fc
6.1-VISTA-ECD-Fc = 6.1-VISTA-ECD-Fc (human); test: ELISA on plate-bound VISTA-ECD-Fc
WT-VISTA-ECD-Fc = target: T3, WT-VISTA-ECD-Fc (human); test: ELISA on plate-bound VISTA-ECD-Fc
T3 construct: also called human VISTA-Fc

2.1B-VISTA-ECD-Fc = 2.1B-VISTA-ECD-Fc (human); test: ELISA on plate-bound VISTA-ECD-Fc
2.3A-VISTA-ECD-Fc = 2.3A-VISTA-ECD-Fc (human); test: ELISA on plate-bound VISTA-ECD-Fc
5.1-VISTA-ECD-Fc = 5.1-VISTA-ECD-Fc (human); test: ELISA on plate-bound VISTA-ECD-Fc
3.2-VISTA-ECD-Fc = 3.2-VISTA-ECD-Fc (human); test: ELISA on plate-bound VISTA-ECD-Fc
3xN-VISTA-ECD-Fc = 3xN-VISTA-ECD-Fc (human); test: ELISA on plate-bound VISTA-ECD-Fc
2.1E-VISTA-ECD-Fc = 2.1E-VISTA-ECD-Fc (human); test: ELISA on plate-bound VISTA-ECD-Fc
7.1-VISTA-ECD-Fc = 7.1-VISTA-ECD-Fc (human); test: ELISA on plate-bound VISTA-ECD-Fc
2.3D-VISTA-ECD-Fc = 2.3D-VISTA-ECD-Fc (human); test: ELISA on plate-bound VISTA-ECD-Fc
2.3E-VISTA-ECD-Fc = 2.3E-VISTA-ECD-Fc (human); test: ELISA on plate-bound VISTA-ECD-Fc
2xN-VISTA-ECD-Fc = 2xN-VISTA-ECD-Fc (human); test: ELISA on plate-bound VISTA-ECD-Fc
7.4-VISTA-ECD-Fc = 7.4-VISTA-ECD-Fc (human); test: ELISA on plate-bound VISTA-ECD-Fc
7.2-VISTA-ECD-Fc = 7.2-VISTA-ECD-Fc (human); test: ELISA on plate-bound VISTA-ECD-Fc
8xHis-Ala-VISTA-ECD-Fc = 8xHis-Ala-VISTA-ECD-Fc (human); test: ELISA on plate-bound VISTA-ECD-Fc
4.1-VISTA-ECD-Fc = 4.1-VISTA-ECD-Fc (human); test: ELISA on plate-bound VISTA-ECD-Fc
2.1A-VISTA-ECD-Fc = 2.1A-VISTA-ECD-Fc (human); test: ELISA on plate-bound VISTA-ECD-Fc
2.3F-VISTA-ECD-Fc = 2.3F-VISTA-ECD-Fc (human); test: ELISA on plate-bound VISTA-ECD-Fc
1.3-VISTA-ECD-Fc = 1.3-VISTA-ECD-Fc (human); test: ELISA on plate-bound VISTA-ECD-Fc
5xN-VISTA-ECD-Fc = 5xN-VISTA-ECD-Fc (human); test: ELISA on plate-bound VISTA-ECD-Fc
1.2-VISTA-ECD-Fc = 1.2-VISTA-ECD-Fc (human); test: ELISA on plate-bound VISTA-ECD-Fc
2.1F-VISTA-ECD-Fc = 2.1F-VISTA-ECD-Fc (human); test: ELISA on plate-bound VISTA-ECD-Fc
2.3C-VISTA-ECD-Fc = 2.3C-VISTA-ECD-Fc (human); test: ELISA on plate-bound VISTA-ECD-Fc
2xHis-Ala-VISTA-ECD-Fc = 2xHis-Ala-VISTA-ECD-Fc (human); test: ELISA on plate-bound VISTA-ECD-Fc
7.3-VISTA-ECD-Fc = 7.3-VISTA-ECD-Fc (human); test: ELISA on plate-bound VISTA-ECD-Fc
2.3B-VISTA-ECD-Fc = 2.3B-VISTA-ECD-Fc (human); test: ELISA on plate-bound VISTA-ECD-Fc
2.2-VISTA-ECD-Fc = 2.2-VISTA-ECD-Fc (human); test: ELISA on plate-bound VISTA-ECD-Fc
2.1D-VISTA-ECD-Fc = 2.1D-VISTA-ECD-Fc (human); test: ELISA on plate-bound VISTA-ECD-Fc
1.1-VISTA-ECD-Fc = 1.1-VISTA-ECD-Fc (human); test: ELISA on plate-bound VISTA-ECD-Fc
8.1-VISTA-ECD-Fc = 8.1-VISTA-ECD-Fc (human); test: ELISA on plate-bound VISTA-ECD-Fc
10.3-VISTA-ECD-Fc = 10.3-VISTA-ECD-Fc (human); test: ELISA on plate-bound VISTA-ECD-Fc

- ELISA Abs 450 nm (RFQ-VISTA-ECD-Fc): 0.017 Abs 450 nm
- EC50 (2.1C-VISTA-ECD-Fc): 0.07 µg/mL
- EC50 (3.1-VISTA-ECD-Fc): 0.1 µg/mL
- EC50 (2.3-VISTA-ECD-Fc): 21 µg/mL
- EC50 (3xHis-Ala-VISTA-ECD-Fc): 0.1 µg/mL
- EC50 (6.1-VISTA-ECD-Fc): 0.1 µg/mL
- EC50 (WT-VISTA-ECD-Fc): 0.06 µg/mL
- EC50 (2.1B-VISTA-ECD-Fc): 0.07 µg/mL
- EC50 (2.3A-VISTA-ECD-Fc): 0.06 µg/mL
- EC50 (5.1-VISTA-ECD-Fc): 0.1 µg/mL
- EC50 (3.2-VISTA-ECD-Fc): 0.1 µg/mL
- EC50 (3xN-VISTA-ECD-Fc): 0.1 µg/mL
- EC50 (2.1E-VISTA-ECD-Fc): 74 µg/mL
- EC50 (7.1-VISTA-ECD-Fc): 0.08 µg/mL
- EC50 (2.3D-VISTA-ECD-Fc): 0.04 µg/mL
- EC50 (2.3E-VISTA-ECD-Fc): 0.08 µg/mL
- EC50 (2xN-VISTA-ECD-Fc): 0.1 µg/mL
- EC50 (7.4-VISTA-ECD-Fc): 0.08 µg/mL
- EC50 (7.2-VISTA-ECD-Fc): 0.09 µg/mL
- EC50 (8xHis-Ala-VISTA-ECD-Fc): 0.08 µg/mL
- EC50 (4.1-VISTA-ECD-Fc): 0.1 µg/mL
- EC50 (2.1A-VISTA-ECD-Fc): 0.1 µg/mL
- EC50 (2.3F-VISTA-ECD-Fc): 0.06 µg/mL
- EC50 (1.3-VISTA-ECD-Fc): 0.1 µg/mL
- EC50 (5xN-VISTA-ECD-Fc): 0.1 µg/mL
- EC50 (1.2-VISTA-ECD-Fc): 0.1 µg/mL
- EC50 (2.1F-VISTA-ECD-Fc): 0.09 µg/mL
- EC50 (2.3C-VISTA-ECD-Fc): 0.07 µg/mL
- EC50 (2xHis-Ala-VISTA-ECD-Fc): 0.1 µg/mL
- EC50 (7.3-VISTA-ECD-Fc): 0.11 µg/mL
- EC50 (2.3B-VISTA-ECD-Fc): 0.09 µg/mL
- EC50 (2.2-VISTA-ECD-Fc): 0.1 µg/mL
- EC50 (2.1D-VISTA-ECD-Fc): 0.05 µg/mL
- EC50 (1.1-VISTA-ECD-Fc): 0.1 µg/mL
- EC50 (8.1-VISTA-ECD-Fc): 0.06 µg/mL
- EC50 (10.3-VISTA-ECD-Fc): 0.04 µg/mL
B1: VSTB174 (antibody, V domains shown)
VH: QVQLVQSGAEVKKPGSSVKVSCKASGGTFSSYAISWVRQAPGQGLEWMGGIIPIFGTANYAQKFQGRVTITADESTSTAYMELSSLRSEDTAVYYCARSSYGWSYEFDYWGQGTLVTVSS
VL: DIQMTQSPSSLSASVGDRVTITCRASQSIDTRLNWYQQKPGKAPKLLIYSASSLQSGVPSRFSGSGSGTDFTLTISSLQPEDFATYYCQQSAYNPITFGQGTKVEIKR
